Literature values in patent US9987593B2, “Method for producing NOx storage-reduction catalyst” (TOYOTA JIDOSHA KABUSHIKI KAISHA, priority 2016, dated 2018).

| Substance | solubility in water (in words) |
| --- | --- |
| potassium tetranitroacridone | substantially insoluble in water |
| potassium tetranitrophenothiazine-9-oxide | substantially insoluble in water |
